For this test, the target named is T1, GST–[T233E]SPAK kinase (Homo sapiens, UniProt Q9UEW8, T231E).
T1 construct: made in house; host or cells: E. coli
Put plainly: SPAK kinase assay with CATCHtide and IC50 determination. The format is biochemical. Conditions: ATP 0.1 mM; inhibitor 1000 uM. An excerpt:
II. Experimental procedures
1. Reagents and General methods
Tissue culture reagents were from Life Technologies. P81 phosphocellulose paper was from Whatman […]
and [γ-32P]-ATP was from Perkin Elmer. […] Protein G […]
sepharose was from Amersham. DNA constructs used for transfection were purified from Escherichia coli DH5α using Qiagen or Invitrogen plasmid Maxi kits according to the manufacturer's protocol. All DNA constructs were verified by DNA sequencing.
2. Plasmids, protein expression and purification
DNA clones were from the Division of Signal Transduction Therapy (University of Dundee). The SPAK proteins were expressed in E. Coli and purified as described previously 1.
3. SPAK kinase assays and IC50 determination
SPAK kinase assays employed CATCHtide (cation chloride co-transporter peptide substrate). […]
cpm/pmol) and the indicated concentrations of inhibitor dissolved in DMSO. […] The papers were washed extensively and incorporation of [γ-32P]ATP into CATCHtide was quantified by Cerenkov counting.
IC50 values were calculated with GraphPad Prism using non-linear regression analysis.
4. Fluorescence polarization […]
the absence or presence of five-fold molar excess of wild-type MO25α. b Kinetic data determined for B ZT-1a in the absence or presence of five-fold molar excess of wild-type MO25α. […]

Each structure is given as a SMILES string.

As to `CN[C@@H]1C[C@H]2O[C@@](C)([C@@H]1OC)n1c3ccccc3c3c4c(c5c6ccccc6n2c5c31)C(=O)NC4` [staurosporine, reference compound], the “SPAK kinase activity signal (Fig S3 source data)” value is recorded as 78.
